According to patent publication US20240173276A1, “METHODS AND COMPOSITIONS FOR INHIBITING FORMATION OF THE HIV LATENT RESERVOIR” (The University of North Carolina at Chapel Hill, priority 2021, published 2024):

Test system: replication competent HIV (NL4-3 HSA) infected primary CD4 T cells
Conditions: 500 nM vorinostat with raltegravir and abacavir from 2 dpi, vorinostat removed at 12 dpi; vs DMSO

SMILES: O=C(CCCCCCC(=O)Nc1ccccc1)NO [vorinostat]
- duration of significantly prolonged viral gene expression (HSA+): at least 17 days after infection
